Experiment: Permeability in human Caco2 cells
Format: ADME, cell-based
Details: caco-2

## CCCCCCNc1nc(NC2CCN(C)CC2)c2cc(OC)c(OC)cc2n1
  permeability: 0.5 ×10⁻⁶ cm/s

— ChEMBL document CHEMBL4004823, “Discovery of Potent and Selective Inhibitors for G9a-Like Protein (GLP) Lysine Methyltransferase” (J Med Chem, 2017)
